Target: T1, histamine-3 receptor (Rattus norvegicus, UniProt Q9QYN8)
T1 construct: from tissue; host or cells: male Sprague-Dawley rat brain cortex membranes
Test: Histamine-3 receptor binding, (3H)-N-α-methylhistamine displacement in rat cortical membranes
Details: male Sprague-Dawley rat brain cortical membranes; (3H)-N-α-methylhistamine ~0.6 nM; 30 minutes at 25° C.; Cheng-Prusoff
Procedure: Briefly, male Sprague-Dawley rat brain cortices were homogenized (1 g tissue/10 mL buffer) in 50 mM Tris-HCl/5 mM EDTA containing protease inhibitor cocktail (Calbiochem) using a polytron set at 20,500 rpm. Homogenates were centrifuged for 20 minutes at 40,000×g. The supernatant was decanted, and pellets were weighed. The pellet was resuspended by polytron homogenization in 40 mL 50 mM Tris-HCl/5 mM EDTA with protease inhibitors and centrifuged for 20 minutes at 40,000×g. […] Test compounds were dissolved in DMSO to provide 20 mM solution, serially diluted and then added to the incubation mixtures prior to initiating the incubation assay by addition of the membranes. Thioperamide (3 μM) was used to determine nonspecific binding. Binding incubations were conducted for 30 minutes at 25° C. and terminated by addition of 2 mL of ice cold 50 mM Tris-HCl (pH 7.7) and filtration through 0.3% polyethylenimine-soaked Unifilter plates (Packard). These filters were washed 4 additional times with 2 mL of ice-cold 50 mM Tris-HCl and dried for 1 hour. Radioactivity was determined using liquid scintillation counting techniques. Results were analyzed by Hill transformation and Ki values were determined using the Cheng-Prusoff equation.

The chains behind the UniProt entries cited, without tags or fusion partners. Where a name states a change or a piece, a line headed by the entry shows the natural chain unless it says otherwise.
UniProt Q9QYN8: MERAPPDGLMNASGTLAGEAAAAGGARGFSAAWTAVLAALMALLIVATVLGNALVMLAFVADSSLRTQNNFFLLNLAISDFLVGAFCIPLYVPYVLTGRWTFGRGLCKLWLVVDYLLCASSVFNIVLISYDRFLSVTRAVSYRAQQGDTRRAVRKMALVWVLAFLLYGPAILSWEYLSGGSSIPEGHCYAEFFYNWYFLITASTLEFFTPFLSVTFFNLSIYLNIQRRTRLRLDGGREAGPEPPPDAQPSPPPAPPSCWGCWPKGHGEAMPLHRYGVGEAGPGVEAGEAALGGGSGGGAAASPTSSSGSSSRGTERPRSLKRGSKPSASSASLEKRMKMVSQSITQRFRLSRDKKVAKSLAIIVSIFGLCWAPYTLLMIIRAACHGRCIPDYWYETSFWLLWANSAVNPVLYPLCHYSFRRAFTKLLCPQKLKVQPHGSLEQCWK

- Ki: 3.7 nM
Compound: O=C(c1ccc(OCCCN2CC[C@@H](NS(=O)(=O)c3ccccc3Cl)C2)cc1)C1CC1 [Example 69, 2-chloro-N-((3R)-1-{3-[4-(cyclopropylcarbonyl)phenoxy]propyl}pyrrolidinyl)benzenesulfonamide]

Source: patent publication US6620839B2, “1,3-disubstituted and 1,3,3-trisubstituted pyrrolidines as histamine-3 receptor ligands and their therapeutic applications” (Abbott Laboratories, priority 2000, dated 2003)
